The record followed here is US9963458B2, “Indole and indoline-type piperidine compounds and uses thereof” (priority 2012, dated 2018).

Structures are written as SMILES. pKi: −log10 of the molar value.

Assay [1] addresses T1, human opioid receptor-like (ORL-1) (Homo sapiens, UniProt P41146). The assay is described as follows: In vitro ORL-1 receptor binding assay ([3H]-nociceptin displacement). The settings on record: for pKi: read-out: ORL-1 Ki, Average ± Std Deviation, procedure of Example 6.
Assay [2] has as its target T1, human opioid receptor-like (ORL-1). The assay is described as follows: ORL-1 receptor [35S]GTPγS functional binding assay. The assay is classed as biochemical. Conditions: mean ± SEM; procedure of Example 7.
Assay [3] addresses human kappa opioid receptor (Homo sapiens, UniProt P41145). The assay is described as follows: κ-opioid receptor binding assay ([3H]-U69,593 displacement). Conditions: read-out: Ki for the κ-opioid receptor.
The target in assay [4] is recombinant delta opioid receptor expressed in CHO-K1 cells (Homo sapiens, UniProt P41143). The assay is described as follows: δ-opioid receptor binding assay ([3H]-Naltrindole displacement). Conditions: read-out: Ki for the δ-opioid receptor.
A further assay deals with human μ-opioid receptors (Homo sapiens, UniProt P35372). The assay is described as follows: μ-opioid receptor binding assay ([3H]-diprenorphine displacement). Conditions: read-out: Ki for the μ-opioid receptor.

For the compound `O=C(O)Cc1cn([C@H]2C[C@H]3CCC[C@@H](C2)N3[C@H]2C[C@@H]3CCC[C@@H](C3)C2)c2ccccc12` [Compound 7], the pKi (usually the Ki on a negative log10 scale, so that one unit is a factor of ten) in assay [1] is 8.52. Further, the “ORL-1 GTPγS Emax” value in assay [2] is listed as 0.33 ± 0.67%.
For `c1ccc2c(c1)ccn2[C@H]1C[C@H]2CCC[C@@H](C1)N2[C@H]1C[C@@H]2CCC[C@@H](C2)C1` [Compound 11], in that order: 8.76 and 23.5 ± 1.26%.
For `O=C(O)Cc1cn([C@H]2C[C@H]3CCC[C@@H](C2)N3C2CCCCCCCCC2)c2ccccc12` [Compound 23, 2-(1-((1R,3r,5S)-9-cyclodecyl-9-azabicyclo[3.3.1]nonan-3-yl)-1H-indol-3-yl)acetic acid], the negative-log Ki (pKi) in assay [3] is less than 4.70; in assay [4], less than 4.70; in assay [1], 7.59; at human μ-opioid receptors it was less than 4.70. Moreover, the “selectivity for the ORL-1 receptor relative to the μ-opioid receptor, δ-opioid receptor and κ-opioid receptor” value in assay [1] is on record as “several orders of magnitude”. Besides, the “ORL-1 GTPγS Emax” value in assay [2] was found to be 74.33 ± 2.85%.
Regarding `O=C(O)C(=O)c1cn([C@H]2C[C@H]3CCC[C@@H](C2)N3[C@H]2C[C@@H]3CCC[C@@H](C3)C2)c2ccccc12`, the pKi in assay [1] was 8.40. Besides, the “ORL-1 GTPγS Emax” value in assay [2] was 9 ± 8%.
Take `NC(=O)C(=O)c1cn([C@H]2C[C@H]3CCC[C@@H](C2)N3[C@H]2C[C@@H]3CCC[C@@H](C3)C2)c2ccccc12`: the pKi in assay [1] is 9.00.
